What is called IC50 is the concentration that inhibits the measured activity by half.

Protein sequences, listed by entry. Tags and fused reporters are not part of them. Residues count along the entry.
UniProt P52333, 810-1124: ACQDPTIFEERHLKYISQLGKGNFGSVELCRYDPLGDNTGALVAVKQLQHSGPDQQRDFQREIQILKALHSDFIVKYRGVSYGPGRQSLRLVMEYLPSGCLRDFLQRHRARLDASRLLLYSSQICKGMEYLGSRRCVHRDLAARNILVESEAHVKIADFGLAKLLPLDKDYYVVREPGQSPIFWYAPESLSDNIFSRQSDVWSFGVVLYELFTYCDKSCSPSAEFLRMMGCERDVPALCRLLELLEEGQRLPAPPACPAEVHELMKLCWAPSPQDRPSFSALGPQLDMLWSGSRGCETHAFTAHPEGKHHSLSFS

This experiment has as its target T1, JAK3 (recombinant human kinase domain; h-jak3(810-1124)) (Homo sapiens, UniProt P52333).
T1 construct: h-jak3(810- 1124)-sf9-c; made in house; host or cells: Sf9 insect cells
Kind of experiment: Determination of IC50 of Janus Kinase (JAK) inhibition: JAK3, radioactive end-point assay with 33P-ATP. The class given is biochemical. As to conditions: ATP 1.5 uM, peptide 50 uM, 20 minutes, room temperature, 10% DMSO, read-out: Ic50 h-jak3(810-1124)-sf9-c:no additive.

For `CC(C)NC(=O)c1c[nH]c2ncc(C3CC3)nc12` [Example I-8, 2-Cyclopropyl-5H-pyrrolo[2,3-b]pyrazine-7-carboxylic acid isopropylamide], the IC50 turned out to be 0.0488 µM.
To `C[C@@H](NC(=O)c1c[nH]c2ncc(C3CC3)nc12)C(C)(C)O` [Example I-30, 2-Cyclopropyl-5H-pyrrolo[2,3-b]pyrazine-7-carboxylic acid ((R)-2-hydroxy-1,2-dimethyl-propyl)-amide] belongs 0.0191 µM.

The values above are taken from patent publication US20140155376A1, “PYRROLOPYRAZINE KINASE INHIBITORS” (Hoffmann-La Roche Inc., priority 2010, published 2014).
